Test system: p-STAT3, p-SHP1, p-SHP2, p-P44/42
Test: IL-6 / IL-2 signaling in KHYG-1 cells, gel electrophoresis
Format: cell-based, human
Details: KHYG-1 cells starved of IL-2 for 6 hours, cytokine alone (IL-2 10 ng/mL or IL-6 100 ng/mL)
From the text: PE labeled mouse anti-human CD126 (IL-6 receptor alpha chain) (Catalog: 551850), PE labeled mouse anti-human CD130 (gp130, IL-6 receptor-associated signal transducer) (Catalog #:555757), PE-labeled Mouse IgG1 k isotype control (Catalog: 555749), APC-labeled mouse anti-human CD2 (Catalog: 560642), FITC-labeled mouse anti-human CD2 (Catalog: 555326), APC-labeled mouse anti-human PD-L1 (Catalog: 563741) and APC-labeled mouse anti-human PD-L2 (Catalog: 557926) were bought from BD Pharmingen. APC-labeled mouse anti-human PD1 antibody (Catalog: 329907) was bought from Biolegend. Phosphor-Stat3(Ser727) mouse mAb (Catalog:9136), Phosphor-Shp-1(Tyr564) rabbit mAb (Catalog; 8849), Phosphor-Shp-2(Tyr580) rabbit mAb (Catalog: 5431), Phospho-p44/42 MAPK (Erk1/2) (Thr202/Tyr204) rabbit mAb (Catalog: 4370) and p44/42 MAPK (Erk1/2) rabbit mAb were bought from Cell Signaling Technology. Phosphor-Stat3(Tyr705) mouse mAb (Catalog: sc-81523) and rabbit anti-human Stat3 polyclonal antibody (Catalog: sc-7179) were bought from Santa Cruz Biotechnology. Mouse anti-beta actin (Catalog: A5441) was bought from SIGMA-ALDRICH. Functional IL-6 blocking antibody (Catalog: 501110) and the related isotype control antibody (Catalog: 400414) were bought from Biolegend.
KHYG-1 cells were cultivated and maintained as mentioned above. When testing the effects of IL-6 alone, KHYG-1 cells were starved in RPMI160 medium supplemented with 10% FBS (no IL-2) for 6 hours, then stimulated with 10 ng/mL of IL-2 and/or 100 ng/mL of IL-6.

In the case of “IL-2: Recombinant Human IL-2 (Catalog: 200-02) from PEPROTECH”, the p-P44/42 is reported as “activated”, the p-SHP1 is reported as “decreased expression” and the p-SHP2 is reported as “decreased expression”. For the same substance, the p-STAT3 was “activated”.
